These results are taken from US8822407B2, “Preparation of conjugates comprising adenine derivatives and allergenic proteins and their use for specific immunotherapy of allengenic diseases” (Universita' Degli Studi di Firenze, priority 2010, dated 2014).

The test system of one assay is purified BDCA4+ cells. In words: Cytokine production by purified BDCA4+ cells (plasmacytoid dendritic cells), ELISA. It is filed as cell-based, human. The settings on record: Table C, Donor #2, dose 2.5 μg/ml. As to the method: The preparation of purified BDCA4+ cells has been obtained in a similar way starting from MNC of buffy coats of the same 14 healthy donors. After density gradient separation, 500×10^6 MNC have been isolated by the use of a commercial kit (BDCA4 isolation kit, Miltenyi) by addition of 500 μl anti-BDCA4 monoclonal antibody bound to iron beads followed by separation on magnetic columns (LS column). By positive selection 5×10^6 plasmacytoid dendritic cells (PDCs) are recovered, extensively washed with calcium and magnesium-free sterile PBS and seeded in complete medium plus 10% foetal calf serum in 24-flat bottomed plates at the concentration 1×10^6/ml. […] The plates are incubated for 36 hrs at 37° C. in 5% CO2 humidified atmosphere and the supernatants are collected after centrifugation at 1200 rpm, aliquoted and then stored at −20° C. up to the assay. […]
(§1) For the determination of cytokines and chemokines of the innate immunity, commercial ELISAs have been used: IL-12p40 (Cytoscreen, Biosource Int, Camarillo, Calif.), IFN-alfa (Cytoscreen), TNF-alfa (Cytoscreen), IL-10 (Pharmingen), IL-6 and CXCL10 (R&D System). 100 μl/well of single supernatants are incubated in flat bottomed plates as specified by the productors and the amounts of the single cytokines are expressed as pg/ml on the basis of a reference curve by using recombinant cytokines. […]
For orientation: In an ELISA, binding on a coated surface is turned into a signal by an enzyme label.

The test system of a further assay is purified CD14+ cells. In words: Cytokine production by purified CD14+ cells (ELISA of supernatants, 36 hrs). It is filed as cell-based, human. The following applies: Table A. As for the experimental part:
Circulating mononuclear cells (MNC) are isolated by density gradient (Ficoll-Hypaque) using buffy coats from 14 normal donors (Servizio Immunotrasfusionale e terapie cellulari, Azienda Ospedaliera Universitaria A. Meyer, Firenze). 200×10^6 MNC are separated by the use of a commercial kit (CD14 isolation kit, Miltenyi) by the addition of 400 μl anti-CD14 monoclonal antibody bound to iron beads followed by isolation on magnetic columns (LS column). 50×10^6 monocytes are recovered by positive selection and are extensively washed with calcium and magnesium-free sterile PBS and then seeded in complete medium plus 10% foetal calf serum in 24 flat bottomed plates at the concentration of 1×10^6/ml. […] The plates are incubated for 36 hrs at 37° C. in 5% CO2 humidified atmosphere and the supernatants are collected after centrifugation at 1200 rpm, aliquoted and then stored at −20° C. up to the assay. […]
as §1

`Nc1nc(SCCCC(=O)ON2C(=O)CCC2=O)nc2c1nc(O)n2Cc1ccccc1` [SA-26E, 4-(6-Amino-9-benzyl-8-hydroxy-9H-purin-2-ylsulfanyl)-butyric acid 2,5-dioxo-pyrrolidin-1-yl ester]: the IL-10 production in the assay on purified BDCA4+ cells stood at 209 pg/mL; in the assay on purified CD14+ cells (Donor #2, dose 2.5 μg/ml), 243 pg/mL. In the assay on purified CD14+ cells (Donor #1, dose 2.5 μg/ml), this compound displayed a TNF-alfa production of 597 pg/mL.
